## Ab-91 heavy chain CDR variants: yeast mating affinities

Source: Engelhart et al. 2022 (doi:10.1038/s41597-022-01779-4), MIT Lincoln Laboratory and A-Alpha Bio; data file from the FLAb repository.

Target: peptide PDVDLGDISGINAS, taken from heptad repeat 2 (HR2) of SARS-CoV-2 spike.

Ab-91 is the parent antibody, in scFv form: VL, then three GGGGS repeats, then VH. The light chain is unchanged in all variants.
VL: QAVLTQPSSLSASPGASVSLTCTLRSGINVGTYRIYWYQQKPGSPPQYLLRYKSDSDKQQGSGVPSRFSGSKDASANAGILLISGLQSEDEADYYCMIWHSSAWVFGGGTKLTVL
VH: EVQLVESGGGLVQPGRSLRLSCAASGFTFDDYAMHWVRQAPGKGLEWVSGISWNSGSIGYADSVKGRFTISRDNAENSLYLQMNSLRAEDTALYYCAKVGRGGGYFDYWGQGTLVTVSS

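AAYL51 was designed without a model: most single CDR substitutions and a random sample of double and triple ones. The assay is AlphaSeq: two haploid yeast populations carry antibody and antigen on their surface. Binding brings cells together so that they mate, and sequencing counts the barcode pairs among the diploids. Each replicate has its own calibration line, from reference interactions of the BCL2 family. There are three technical replicates.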

Substitutions are numbered in sequence along the VH above, starting at 1 (not Kabat). Scale: log10 of Kd in nM, estimated from mating counts; low values are strong binders. A mean of the replicates is given; it leaves out those without a signal. Where no diploid with the target was found in that replicate, the entry reads "ND": below detection, most likely a poor binder, though not proof of it.

The variant M34A+V64W+G104L gave ND, ND, ND (controls 4 of 9).
The variant D30K+H35L+R101L gave ND, ND, ND (controls 0 of 9).
The variant N54V+S63G gave ND, 4.24, ND (controls 0 of 9).
The variant N54V+D62N+K65S gave 5.05, 7.05, 4.54 (mean 5.55; controls 6 of 9).
The variant D30G+G50D+G103C gave ND, ND, ND (controls 1 of 9).
The variant T28C+I58V+A61H gave 0.88, 1.04, 0.68 (mean 0.87; controls 1 of 9).
The variant Y32A+K65F+G104K gave ND, ND, ND (controls 3 of 9).
The variant F29W+S52R+G104C gave 5.15, ND, 4.67 (mean 4.91; controls 3 of 9).
The variant S55F+Y105S gave 4.72, 4.12, ND (mean 4.42; controls 2 of 9).
The variant M34K+I51K+D107N gave ND, 5.33, ND (controls 4 of 9).
The variant F27V+F29P+W53V gave ND, 5.44, ND (controls 3 of 9).
The variant F27I+S63T+V64Q gave 4.10, 4.75, ND (mean 4.43; controls 3 of 9).
The variant A61K+G102A+G103L gave ND, ND, 5.02 (controls 4 of 9).
The variant F29H+I51D+W53T gave 5.69, 5.41, 4.91 (mean 5.34; controls 3 of 9).
The variant Y32L+G50P+D107Q gave 5.08, 3.82, ND (mean 4.45; controls 3 of 9).
The variant G59W+K65Q+G102Q gave ND, ND, ND (controls 3 of 9).
The variant W53G+G56C+Y105P gave 4.53, 5.30, ND (mean 4.91; controls 1 of 9).
The variant F29W+G103S+D107C gave ND, ND, ND (controls 0 of 9).
The variant W53E+R101W+D107A gave ND, ND, ND (controls 0 of 9).
The variant D30N+G102I gave ND, ND, ND (controls 0 of 9).
The variant H35Y+K65V+F106Y gave ND, ND, ND (controls 1 of 9).
The variant Y60G+V99P+G104W gave 5.78, ND, ND (controls 2 of 9).
The variant A33I+I58D+A61Y gave ND, 6.17, ND (controls 2 of 9).
The variant T28G+H35Q+S55G gave ND, ND, ND (controls 1 of 9).
The variant D30H+G59Q+A61Y gave 4.06, ND, ND (controls 1 of 9).
The variant D30W+G50T+D62G gave ND, 5.27, ND (controls 1 of 9).
The variant Y32M+N54L gave ND, ND, ND (controls 3 of 9).
The variant F29G+G56F+V64K gave 6.27, ND, 4.79 (mean 5.53; controls 4 of 9).
The variant W53C+D107Y+Y108W gave ND, ND, ND (controls 0 of 9).
The variant F27N+Y105C gave ND, ND, ND (controls 1 of 9).
The variant G56L+G59N+G100E gave ND, ND, 3.35 (controls 1 of 9).
The variant M34I+S55W+Y60F gave ND, ND, ND (controls 0 of 9).
The variant G56E+R101K+Y105S gave ND, ND, ND (controls 3 of 9).
The variant I58N+Y60T+V99L gave ND, ND, ND (controls 0 of 9).
The variant A61T+S63R+G102C gave ND, ND, ND (controls 0 of 9).
The variant G50K+W53F+V99R gave ND, 5.22, 4.76 (mean 4.99; controls 6 of 9).
The variant S57V+G104W gave 5.00, ND, ND (controls 2 of 9).
The variant G104V+Y105K+F106Q gave 4.49, ND, ND (controls 1 of 9).
The variant I58F+G100K+R101Y gave ND, ND, ND (controls 1 of 9).
The variant N54F+A61I gave ND, ND, ND (controls 4 of 9).
The variant S57Q+A61W+Y105W gave 4.34, 5.98, ND (mean 5.16; controls 2 of 9).
The variant F29Q+I58V+K65I gave ND, ND, ND (controls 1 of 9).

Top 3 of the variants detected in all replicates, tightest first:

| changes | log10 Kd, replicates | mean, log10 nM | signal with controls |
|---|---|---|---|
| T28C+I58V+A61H | 0.88, 1.04, 0.68 | 0.87 | 1 of 9 |
| F29H+I51D+W53T | 5.69, 5.41, 4.91 | 5.34 | 3 of 9 |
| N54V+D62N+K65S | 5.05, 7.05, 4.54 | 5.55 | 6 of 9 |

As a blank, each scFv also met three strains without target: over library AAYL51, 21% of these pairings were detected, typically at 4.54 and seldom below 3.26. The control count says in how many pairings with the empty strains this scFv gave a signal.